Assays:
[1] = Inhibition of 2-oxoglutarate-dependent human JMJD2E in presence of excess 2-oxoglutarate and 10 uM Fe2 by FDH coupled assay
[2] = Inhibition of 2-oxoglutarate-dependent human JMJD2E preincubated for 30 mins by FDH coupled assay

IC50 [1]: 830 µM
IC50 [2]: 24 µM
Structure (SMILES): O=C(O)CNC(=O)C(=O)O [N-OXALYLGLYCINE]

Source: ChEMBL document CHEMBL1152272, “Inhibitor scaffolds for 2-oxoglutarate-dependent histone lysine demethylases” (J Med Chem, 2008)
